Antibody variant affinities, Ab-95 light chain, assay 2

Target: peptide PDVDLGDISGINAS, taken from heptad repeat 2 (HR2) of SARS-CoV-2 spike.

Ab-95 is the parent antibody, in scFv form: VH, then three GGGGS repeats, then VL. The heavy chain is unchanged in all variants.
VH: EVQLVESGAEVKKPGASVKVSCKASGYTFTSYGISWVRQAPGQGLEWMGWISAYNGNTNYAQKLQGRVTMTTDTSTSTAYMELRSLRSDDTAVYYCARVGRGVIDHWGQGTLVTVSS
VL: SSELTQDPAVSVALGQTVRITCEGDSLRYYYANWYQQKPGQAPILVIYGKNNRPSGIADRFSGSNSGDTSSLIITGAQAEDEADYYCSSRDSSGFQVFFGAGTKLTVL

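Phage display of a naive human antibody library on the peptide gave the parent. Library AAYL52 holds single substitutions and randomly drawn double and triple substitutions in the CDRs. The scFvs were displayed on barcoded MATa yeast, the peptide on MATalpha yeast. The frequency of each diploid, read from paired DNA barcodes, reflects how well the two displayed proteins bind. Read counts were normalised to the haploid input and turned into Kd by a linear fit to BCL2-family pairs of known affinity, for each replicate. Mating was done three times.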

Positions count from residue 1 of the parent VL; E23G puts G in place of E.
Affinities are written as log10 Kd with Kd in nM; a lower number is a better binder.
A pair that was not seen in that replicate is written "nd"; this usually means weak binding, but a binder can also be missed.
In this assay the parent's reference entry averaged 2.31; its copy inside this library read 2.25.
Three control strains display no target. For library AAYL52, 28% of the pairings with them gave a signal, with a median of 3.91 and one signal in twenty below 2.90, so weak values seen in few replicates may be background. Also given: how often the same scFv was detected with the empty control strains.

For E23G/Y30F/F98V, the assay gave 3.24, 4.65, nd (controls 1 of 9).
For Y30W/S92H/S93T, the assay gave 3.43, 2.31, 2.76 (controls 0 of 9).
For S26M/S88W/S93E, the assay gave 3.71, 3.75, 3.21 (controls 0 of 9).
For E23H/Y30R/S92C, the assay gave 2.48, 2.04, 1.59 (controls 2 of 9).
For E23I/R90A/G94F, the assay gave 2.75, 2.94, 2.51 (controls 4 of 9).
For R28V/D91Y/S93T, the assay gave 3.70, 2.87, nd (controls 5 of 9).
For G24Y/Y29E/P54Q, the assay gave 3.03, 2.69, nd (controls 1 of 9).
For S88W/V97S/F98L, the assay gave 3.77, 3.32, 3.81 (controls 5 of 9).
For E23T/S26I/S92K, the assay gave 3.01, 3.70, nd (controls 1 of 9).
For K50D/S88D/F95G, the assay gave nd, 4.08, nd (controls 2 of 9).
For G49M/N52E/R53W, the assay gave 2.95, 4.52, nd (controls 4 of 9).
For E23Q/Y31Q/S89P, the assay gave 2.38, 2.19, 1.98 (controls 2 of 9).
For L27Q/R53D/P54V, the assay gave nd, 3.84, 4.22 (controls 0 of 9).
For Y30K/K50V/S89N, the assay gave 2.14, 2.79, 2.67 (controls 3 of 9).
For D25I/Y29V/N52G, the assay gave 3.60, 3.86, 2.65 (controls 5 of 9).
For Y30N/N33P/P54C, the assay gave 2.47, 2.27, 2.14 (controls 5 of 9).
For A32H/P54F/D91K, the assay gave nd, nd, nd (controls 2 of 9).
For L27F/G94N, the assay gave 3.58, 3.65, 3.44 (controls 3 of 9).
For Y30D/N51T, the assay gave 2.56, 2.59, 2.02 (controls 2 of 9).
For Y31W/S92A/F95H, the assay gave nd, 3.98, nd (controls 0 of 9).
For S26M/R90G, the assay gave nd, nd, nd (controls 1 of 9).
For K50M/R53Q/G94L, the assay gave nd, 5.54, nd (controls 2 of 9).
For R28P/Y31D/F95N, the assay gave 2.62, 2.29, 2.25 (controls 3 of 9).
For E23P/A32H/F95V, the assay gave 4.38, 4.53, 3.71 (controls 6 of 9).
For R28W/Y30N/G94L, the assay gave 1.54, 1.67, 1.20 (controls 4 of 9).
For G24A/S92E/G94R, the assay gave 2.70, 3.40, 2.86 (controls 4 of 9).
For N33W/G49H/G94P, the assay gave 4.82, 4.62, nd (controls 1 of 9).
For G49S/R53L/S93H, the assay gave nd, nd, nd (controls 3 of 9).
For K50F/N51K/S89F, the assay gave 3.98, 4.24, nd (controls 6 of 9).
For Y30I/D91H/F98C, the assay gave nd, 4.52, nd (controls 2 of 9).
For G49R/F95T/Q96R, the assay gave 4.31, nd, nd (controls 0 of 9).
For S55Y/S92D/V97G, the assay gave 2.72, 2.83, 3.40 (controls 4 of 9).
For L27M/R28S/N52T, the assay gave 3.12, nd, nd (controls 0 of 9).
For G24V/K50Y, the assay gave nd, 5.44, 3.95 (controls 2 of 9).

A selection of 2 entries from above:

E23P/A32H/F95V: 4.38, 4.53, 3.71 (controls 6 of 9).
R28P/Y31D/F95N: 2.62, 2.29, 2.25 (controls 3 of 9).

Reference: Engelhart et al. 2022, doi:10.1038/s41597-022-01779-4. File: FLAb, binding data.